# Assay outcomes deposited in PubChem by Broad Institute.
# In the library only some 1.8% were active in any assay of this set; here they are far more common.
# SIRT5 inh – blocks human SIRT5 desuccinylation of peptide; Q9NXA8; Purified SirT5, succinyl-peptide AMC, trypsin-coupled fluorescence; inhibition, % at 15 µM; 330,000 tested, 1.1% active; AID 652115; in the data active means inhibition above about 15%
# UUG fidelity – alters start codon recognition fidelity in yeast; S. cerevisiae UUG-firefly luciferase reporter, luminescence/redox ratio; activity score, % at 18.7 µM; actives 0.13% (n = 350,000); AID 602363;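 active = replicate mean at a twofold rise or more, about +100% in these data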;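 also: firefly luciferase made from a UUG start codon reports start codon fidelity; reporter light over untreated wells divided by growth signal over untreated wells; some hits fall short of that in this replicate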
# AF4-AF9 inh – blocks AF4 peptide binding to human AF9 | P42568 | AlphaScreen, biotin-AF4 peptide binding to FLAG-AF9 | inhibition, % at 10 µM | 350,000 tested, 0.47% active;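 active means every replicate reaching a set inhibition limit, whatever the replicate mean, cut at about 25% in these data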;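 further: 0% = plate neutral control median and 100% = total signal loss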
# RAD54 inh – inhibitors of human RAD54 branch migration. inhibition, % at 10.4 µM. 360,000 tested, 0.14% active. RAD54 Holliday junction branch migration, FAM/BHQ fluorescence. Q92698;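 active means mean normalized replicate activity at least 40 and at least half of replicates scoring 40 or more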;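 further: 0% = median of neutral control wells and 100% = median of positive control wells; inhibitors cause a drop in the FAM fluorescence signal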
# RAD52 inh – inhibitors of human RAD52 DNA annealing; AID 651710; 360,000 tested, 0.46% active; recombinant RAD52 DNA annealing, FRET fluorescence; inhibition, % at 18.7 µM;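 active means every replicate showing at least 50% inhibition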
# E-sel inducer – E-selectin induction on HUVECs; P16581; HUVEC E-selectin immunofluorescence imaging; normalized: neutral wells 0, TNF-alpha wells 100; activation, % at 7.58 µM; 260,000 tested, 0.37% active; AID 686992;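 active means mean E-selectin-positive cell signal at least 10% of the positive control, reached in at least 60% of replicates, without over 20% cell loss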
#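 Test system – human umbilical vein endothelial cells (HUVEC), E-selectin induction · Input – 3,000 HUVEC seeded per well · Buffer or medium – EGM-2, gelatin · Compound dosing – single-point compound dose · Detection – immunofluorescence imaging · Measure – percent E-selectin-positive cells · Controls – TNF-alpha high, DMSO low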
# * hit, by the source's call; / = no result given.
mol | RAD52 inh | RAD54 inh | UUG fidelity | SIRT5 inh | E-sel inducer | AF4-AF9 inh
C[C@@H]1CN([C@H](C)CO)C(=O)Cc2cc(NC(=O)Nc3cccc4ccccc34)ccc2O[C@@H]1CN(C)Cc1ccc(Cl)c(Cl)c1 | 8 | -3 | 11 | 1 | 1 | -1
CCCC(=O)N1CC2(C1)CN(C(=O)CC)[C@@H](CO)c1c2c2ccc(OC)cc2n1C | 10 | / | / | -5 | 0 | -3
Cc1noc(C)c1S(=O)(=O)Nc1ccc2c(c1)CC(=O)N([C@@H](C)CO)C[C@H](C)[C@H](CN(C)S(C)(=O)=O)O2 | / | -4 | 1 | / | 8 | /
C[C@@H]1CN([C@@H](C)CO)C(=O)Cc2cc(NC(=O)CCCCCC(=O)Nc3ccccc3N)ccc2O[C@@H]1CN(C)S(=O)(=O)c1cn(C)cn1 | 0 | -5 | 4 | 4 | 0 | 3
CS(=O)(=O)N1[C@@H]2c3cccc(=O)n3C[C@H]1[C@H](CO)[C@H]2C(=O)NCc1ccccc1 | 8 | 12 | / | -13 | 1 | -1
O=C(O)CSc1nc2ccccc2n1-c1ccccc1 | -19 | / | / | 2 | 2 | -3
NC(=O)CSc1nc2ccccc2n1-c1ccccc1 | -12 | -9 | -23 | 26* | / | 4
Cc1ccc(Sc2ccc(CN3CCCC3)cc2[N+](=O)[O-])cc1 | 13 | 6 | -16 | -5 | 0 | 31*
O=C(O)c1cc(N/N=C/c2ccc(N3CCOCC3)s2)ccc1Cl | -65 | -8 | -5 | 36* | / | -10
NC(=O)N/N=C/c1ccc(N2CCOCC2)s1 | -40 | / | / | 4 | 1 | 1
CCNC(=O)[C@H]1[C@H](CO)[C@H]2Cn3c(ccc(-c4ccncc4)c3=O)[C@@H]1N2CC1CC1 | 2 | -13 | / | -2 | 1 | -1
C[C@@H]1CN([C@H](C)CO)C(=O)Cc2cc(NC(=O)Cc3cn(C)c4ccccc34)ccc2O[C@@H]1CN(C)C(=O)Nc1ccc(C(F)(F)F)cc1 | -11 | -4 | -3 | -3 | -7 | -2
C[C@@H]1CN([C@H](C)CO)C(=O)Cc2cc(NC(=O)Cc3cn(C)c4ccccc34)ccc2O[C@H]1CN(C)Cc1ccc(C(F)(F)F)cc1 | -13 | -1 | 23 | 0 | 152* | -5
C[C@H](CO)N1C[C@H](C)[C@@H](CN(C)C(=O)Nc2ccc(C(F)(F)F)cc2)Oc2ccc(NC(=O)Cc3cn(C)c4ccccc34)cc2CC1=O | -17 | -8 | -3 | 4 | 34* | 2
C[C@H]1CN([C@@H](C)CO)C(=O)Cc2cc(NC(=O)Cc3cn(C)c4ccccc34)ccc2O[C@H]1CN(C)Cc1ccc(C(F)(F)F)cc1 | -11 | -3 | 7 | 4 | 258* | -5
CCCCCN(C(=O)CCC(=O)OCC(=O)c1ccc(CCC)cc1)c1c(N)n(CCCC)c(=O)[nH]c1=O | -9 | -2 | -20 | 30* | 2 | -12
CCCCCN(C(=O)CCC(=O)OCC(=O)c1ccc(C(C)(C)C)cc1)c1c(N)n(CCCC)c(=O)[nH]c1=O | -17 | / | / | 3 | -1 | -2
CC(=O)c1cc2c(cc1NC(=O)c1cc(C)nn1-c1ccccc1)OCO2 | -9 | 5 | 3 | -3 | 0 | 34*
CC(=O)Nc1ccc(NC(=O)c2cc(C)nn2-c2ccccc2)cc1 | / | 3 | -16 | / | / | /
CCOC(=O)c1cccc(NC(=O)c2cc(C)nn2-c2ccccc2)c1 | -5 | -4 | -20 | -4 | 41* | -1
CCc1ccc(NC(=O)c2cc(C)nn2-c2ccccc2)cc1 | -6 | 0 | -1 | 9 | 7 | 1
CC(=O)N(C)C[C@H]1[C@H](c2ccc(-c3ccc(F)cc3)cc2)[C@@H](CO)N1C(C)=O | -7 | 1 | -13 | 2 | 0 | -9
COc1ccc(NC(=O)N(C)C[C@@H]2Oc3c(NC(=O)C4CCOCC4)cccc3C(=O)N([C@H](C)CO)C[C@H]2C)cc1 | 6 | -4 | 19 | 1 | 0 | -14
C[C@@H]1CN([C@@H](C)CO)C(=O)c2cccc(NC(=O)c3ccc(-c4nccs4)cc3)c2O[C@@H]1CN(C)Cc1ccc(Cl)c(Cl)c1 | 1 | 2 | 4 | 7 | 32* | 2
CC(C)NC(=O)N(C)C[C@@H]1Oc2c(NC(=O)c3ccc(-c4nccs4)cc3)cccc2C(=O)N([C@@H](C)CO)C[C@H]1C | -3 | -5 | 2 | 2 | 52* | -10

# Part of the list above in order of molecular weight, descending.
mol | RAD52 inh | RAD54 inh | UUG fidelity | SIRT5 inh | E-sel inducer | AF4-AF9 inh
C[C@H]1CN([C@@H](C)CO)C(=O)Cc2cc(NC(=O)Cc3cn(C)c4ccccc34)ccc2O[C@H]1CN(C)Cc1ccc(C(F)(F)F)cc1 | -11 | -3 | 7 | 4 | 258* | -5
CCNC(=O)[C@H]1[C@H](CO)[C@H]2Cn3c(ccc(-c4ccncc4)c3=O)[C@@H]1N2CC1CC1 | 2 | -13 | / | -2 | 1 | -1
NC(=O)CSc1nc2ccccc2n1-c1ccccc1 | -12 | -9 | -23 | 26* | / | 4
